The assay concerns the target T1, UBE3B (His-tagged), recombinant (human, UniProt Q7Z3V4 1-1068).
T1 construct: recombinant UBE3B; also called purified UBE3B; source: Freestyle 293-F cells, transient transfection, purified (Ni-NTA, Superdex 200)
T1 sequence (looked up): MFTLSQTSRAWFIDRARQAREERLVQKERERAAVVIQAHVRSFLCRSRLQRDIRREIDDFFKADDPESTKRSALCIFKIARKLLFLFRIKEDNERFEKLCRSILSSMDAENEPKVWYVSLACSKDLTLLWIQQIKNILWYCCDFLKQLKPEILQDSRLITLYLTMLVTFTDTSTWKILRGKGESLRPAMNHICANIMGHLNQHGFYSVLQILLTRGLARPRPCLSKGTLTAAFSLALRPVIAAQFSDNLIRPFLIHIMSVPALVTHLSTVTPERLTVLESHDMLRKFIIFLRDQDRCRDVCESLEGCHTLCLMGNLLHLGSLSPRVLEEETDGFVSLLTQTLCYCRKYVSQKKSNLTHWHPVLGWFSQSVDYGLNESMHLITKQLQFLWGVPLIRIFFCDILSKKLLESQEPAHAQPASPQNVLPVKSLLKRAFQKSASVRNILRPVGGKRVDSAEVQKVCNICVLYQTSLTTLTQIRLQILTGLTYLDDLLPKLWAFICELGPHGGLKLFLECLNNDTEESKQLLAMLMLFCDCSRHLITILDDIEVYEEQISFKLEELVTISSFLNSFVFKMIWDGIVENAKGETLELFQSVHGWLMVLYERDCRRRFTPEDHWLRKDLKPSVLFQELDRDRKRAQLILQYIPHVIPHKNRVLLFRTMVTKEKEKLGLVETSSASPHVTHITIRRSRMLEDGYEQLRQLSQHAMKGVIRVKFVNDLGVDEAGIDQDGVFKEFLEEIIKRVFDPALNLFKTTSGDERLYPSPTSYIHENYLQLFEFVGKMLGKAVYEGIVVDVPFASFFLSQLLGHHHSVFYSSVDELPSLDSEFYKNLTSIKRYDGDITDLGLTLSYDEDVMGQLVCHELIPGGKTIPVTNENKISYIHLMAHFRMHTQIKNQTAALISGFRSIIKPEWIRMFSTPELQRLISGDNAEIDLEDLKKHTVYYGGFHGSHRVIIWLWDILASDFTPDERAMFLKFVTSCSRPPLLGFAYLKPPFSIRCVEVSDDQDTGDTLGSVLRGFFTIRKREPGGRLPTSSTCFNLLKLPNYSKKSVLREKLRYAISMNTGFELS
The assay can be described thus: co-IP; in vitro co-IP in the purified component system: His-tagged MYC (5 μg), His-tagged UBE3B (5 μg) and GST-tagged MAX mixed in 100 μl of 1% NP-40, 120 mM NaCl, 40 mM tris-HCl pH 7.4, 6 h at 4 °C. The settings on record: both partners purified.

B1: Purified His-tagged MYC (natural protein, human, UniProt P01106 1-454, looked up)
chain: MDFFRVVENQQPPATMPLNVSFTNRNYDLDYDSVQPYFYCDEEENFYQQQQQSELQPPAPSEDIWKKFELLPTPPLSPSRRSGLCSPSYVAVTPFSLRGDNDGGGGSFSTADQLEMVTELLGGDMVNQSFICDPDDETFIKNIIIQDCMWSGFSAAAKLVSEKLASYQAARKDSGSPNPARGHSVCSTSSLYLQDLSAAASECIDPSVVFPYPLNDSSSPKSCASQDSSAFSPSSDSLLSSTESSPQGSPEPLVLHEETPPTTSSDSEEEQEDEEEIDVVSVEKRQAPGKRSESGSPSAGGHSKPPHSPLVLKRCHVSTHQHNYAAPPSTRKDYPAAKRVKLDSVRVLRQISNNRKCTSPRSSDTEENVKRRTHNVLERQRRNELKRSFFALRDQIPELENNEKAPKVVILKKATAYILSVQAEEQKLISEEDLLRKRREQLKHKLEQLRNSCA
notes: purified recombinant MYC; also called MYC-His; MYC protein; source: bought: Origene (TP760019), purified
Turning to B1, the binding result is listed as “binds”.

The values above are taken from article PMC7725785, “TRIB3 promotes MYC-associated lymphoma development through suppression of UBE3B-mediated MYC degradation” (Nature Communications, 2020).
